Screening results (PubChem BioAssay)
hERG WT inh = inhibitors of human wildtype KCNH2 potassium channel; Q12809; U2OS, BacMam KCNH2, thallium flux FluxOr; active compounds read low; activity change, % at 1.84 µM; actives 0.37% (n = 340,000); AID 720551;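 active = maximum activity change below -70%; inconclusive = maximum activity change between -70% and -50%; inactive = maximum activity change above -50%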
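U2OS cells were transduced with wild-type KCNH2 virus (2.03 x 10^8 / mL) for 4 h at room temperature, then cultured overnight at 37 C. Thallium flux was read with FluxOr dye. Rate constants were normalized to DMSO controls.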
Mm-Cpn inhibitor = M. maripaludis TRiC chaperonin inhibition; Potency, µM (series often up to 76.9 µM), actives largely listed as inhibitors; actives 0.031% (n = 330,000); purified Mm-Cpn ATPase, ADP Transcreener TR-FRET; active = well fitted inhibition curve with a large enough effect; inconclusive = small, poorly fitted or top-dose-only effect; also: nearly all actives have a fitted effect of over 80% in size
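ATPase read-out: TR-FRET ADP immunoassay (anti-ADP Eu cryptate vs ADP-d2), ex 320 nm, em 590/665 nm; signal drops as ADP forms. Enzyme 25 nM, ATP 10 uM, 30 min at 37°C after 10 min compound preincubation.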
CCT chaperon mod = cytosolic chaperonin activity modulation. AID 651819. actives 0.3% (n = 360,000). purified chaperonin ATPase assay, HTRF ADP detection, 30 min. activity change, % (concentration not given with the values), hits read low; in the data active = activity change below about -30%
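First, chaperonin was dispensed at 40 nM or 20 nM final depending on batch activity. Next, compounds were pinned at 76 uM and ATP added at 10 uM. After 30 min at 37 °C, ADP detection reagents ran 30 min at ambient temperature.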
Rango complex inh = prevents formation of the Rango-importin beta complex; actives 0.031% (n = 340,000); Potency, µM (titrated, usually from 92.2 µM); Q14974; Rango CFP/YFP FRET sensor + importin beta, 45 min; also: nearly all actives have a fitted effect of over 15% in size
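Inhibition scored from the CFP 486 nm/YFP 530 nm FRET ratio 45 min after adding 0.125 microM importin beta to 50 nM Rango biosensor preincubated 5 min with compound (room temperature, PBS with DTT, Tween-20, BSA). No-importin wells as positive control.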
Rango release inh = prevents RanGTP from dissociating the Rango-importin beta complex; O95149+P62826; Biochemical FRET Rango-importin beta, RanGTP-induced dissociation; Potency, µM (highest dose often 46.1 µM); actives 0.071% (n = 340,000); also: nearly all actives have a fitted effect of over 45% in size
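Rango/importin beta premix (0.1/0.25 uM final), PBS + 1 mM DTT + 0.02% Tween-20 + 0.1% BSA; cpd 5 min RT; FRET pre-read; + RanGTP-RCC1 (0.6 uM Ran, 2 mM GTP, 0.2 uM RCC1); 45 min RT; FRET post-read, ex 430, em 486/530 nm.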
KCNH2 3.1 inh = KCNH2 3.1 (human) potassium channel inhibition; U2OS KCNH2 3.1, thallium flux FluxOr; active compounds read low; activity change, % (tested at about 1.8 µM); actives 0.95% (n = 340,000);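 active = maximum activity change below -70%; inconclusive = maximum activity change from -70% to -50%; inactive = maximum activity change above -50%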;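 also: thallium influx rate constant from kinetic fluorescence after stimulation buffer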
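We transduce U2OS cells with the mutant 3.1 virus, culture them overnight, load FluxOr with Red40 quencher for 45 min, then add stimulation buffer and read kinetically for 2 min to derive a normalized rate constant.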
Numbers stand for hits; . = inactive; ? = inconclusive; / = no result given; ! = not confirmed by another sample; [ ] = dose if it differs, or a comment. The list is not random: actives were taken first. Their share in the collection is about 1.4%. Unless noted, calls follow the shape of the full dose curve.

SMILES	hERG WT inh	Mm-Cpn inhibitor	CCT chaperon mod	Rango complex inh	Rango release inh	KCNH2 3.1 inh
CC(=O)N1CCCC(N2CCN(c3cccc(C(F)(F)F)c3)CC2)C1 (centres undefined)	.	.	.	.	.	.
O=C(NCC1CCCO1)/C(=C\c1ccccc1F)NC(=O)c1ccccc1 (centres undefined)	.	.	.	.	.	.
Cn1c2cc(B(O)O)sc2c2cnn(Cc3ccc(F)cc3F)c(=O)c21	/	.	/	/	/	/
O=C(OCc1ccccc1F)c1cc2ccccc2cc1O	.	.	.	.	.	.
Cc1cccc(C(C)(C)C)c1OCCCCN1CCCC1	.	.	-59	.	.	.
CC(C)(C)c1ccccc1OCCCCN1CCCC1	.	.	.	.	.	.
Cc1ccc(C)c(OCCCCN2CCNCC2)c1C	.	.	.	.	.	-88
CN(C(=O)c1ccc(NC(=O)Cc2cccc(NC(=O)C3CCN(C(=O)C4CCCC4)CC3)c2)cc1)C1CCCC1	/	.	.	.	.	/
COc1cccc(C(CCc2cc(OC)c(OC)c(OC)c2)NC(C)=O)c1 (centres undefined)	.	/	-74	.	.	.
Cc1cccc(NS(=O)(=O)c2cc3c4c(c2)CCN4C(=O)CC3)c1C	-173	.	.	.	.	.
C=CCN1N=C(/C=C/c2ccc(OC)cc2)CCC1=O	.	.	.	.	.	.
CCOC(=O)CN1N=C(/C=C/c2ccccc2)CCC1=O	.	/	-48	.	.	.
C=CCN1N=C(/C=C/c2ccc(C)cc2)CCC1=O	.	.	.	.	.	-108
Cc1cc(C)c(OCC(=O)OCC(=O)N2c3ccccc3CC2C)c(C)c1 (centres undefined)	.	.	.	.	.	.
N#Cc1ccc(S(=O)(=O)N2CCCN(c3nc4ccc(Cl)cc4s3)CC2)cc1	-74	.	.	.	.	-95
N#Cc1ccc(S(=O)(=O)N2CCCN(c3ccc(C(F)(F)F)cn3)CC2)cc1	.	.	.	.	.	.
CCN(CC)C(=O)CC(c1ccc(N(C)C)cc1)c1c(O)cc(OC)cc1OC (centres undefined)	/	.	.	.	.	/
O=C(NCCCN1CCN(CCCNC(=O)c2cccc([N+](=O)[O-])c2)CC1)c1cccc([N+](=O)[O-])c1	.	.	.	.	.	-81
Cc1ccc(C(=O)N/C(=C\c2ccc(C(C)C)cc2)C(=O)NCCCN2CCOCC2)cc1	.	.	.	.	.	.
Cc1ccc(C(=O)N/C(=C\c2ccc(Cl)cc2)C(=O)NCCCN2CCOCC2)cc1	-141	.	.	.	.	-103
Cc1ccc(C(=O)N/C(=C\c2ccc(-c3cccc([N+](=O)[O-])c3)o2)C(=O)NCCCN2CCOCC2)cc1	.	.	.	.	.	-186
Cn1c(=O)c2cc(NC(=O)CCc3cccnc3)ccc2n1Cc1ccc(F)cc1	/	/	.	/	/	/
COc1ccc([C@]23Cc4cc(OC)c(OC)cc4C(O2)c2c(c4ccccc4oc2=O)O3)cc1	/	.[15.4 µM]	/	/	/	/
CC1=CCC2C(=O)N(c3ccc(OC(=O)c4ccco4)cc3)C(=O)C2C1 (centres undefined)	.	.	.	.	.	.
COc1ccc(CC(=O)Oc2ccc(C)cc2Br)cc1OC	.	.	.	.	.	.
SMILES	hERG WT inh	Mm-Cpn inhibitor	CCT chaperon mod	Rango complex inh	Rango release inh	KCNH2 3.1 inh
CCCC(=O)Nc1c2c(nn1-c1ccccc1)CSC2	.	.	.	.	.	-114
O=C(CBr)Nc1c2c(nn1-c1ccccc1)CSC2	.	.	.	.	.	.
Cc1nc2ccccn2c(=O)c1CCN1CCC(C(=O)c2ccc(F)cc2)CC1	.	.[15.4 µM]	.	.	.	.
Cc1nc2sccn2c(=O)c1CCN1CCC(=C(c2ccc(F)cc2)c2ccc(F)cc2)CC1	-149	.[15.4 µM]	.	.	.	-114
C[C@@H](NC(=O)[C@@H]1Cc2ccccc2CN1C(=O)OC(C)(C)C)C(=O)NC1CCCC1	.	.	.	.	.	.
CC1CCCCC1NC(=O)COC(=O)c1c2c(nc3ccccc13)/C(=C\c1ccco1)CC2 (centres undefined)	.	/	.	?	2.3µM	.
O=C(COC(=O)c1c2c(nc3ccccc13)/C(=C\c1ccco1)CC2)NC1CCCC1	.	/	.	?	?	.
O=C(Cn1cncn1)N/N=C/c1cc([N+](=O)[O-])ccc1O	-104	.	.	.	.	.
CCC(C)[C@H](NC(=O)Nc1ccccc1F)C(=O)OC (some centres undefined)	.	.	.	.	.	.
C=CC[C@H](CC(=O)N[C@H](CO)Cc1ccccc1)C(=O)N[C@H](COC(=O)[C@H](CC=C)CC(=O)OC(C)(C)C)Cc1c[nH]c2ccccc12	.	.	.	.	.	.
O=C(c1cccs1)N1CCN(C(=O)c2cn(-c3ccccc3)nc2-c2ccccc2)CC1	-129	.	.	.	.	-172
O=C(c1cn(-c2ccccc2)nc1-c1ccccc1)N1CCOCC1	.	.	.	.	.	.
CN1CCc2c(sc(NC(=O)CS(=O)(=O)c3ccccc3)c2C(N)=O)C1	.	.	.	?	23µM	.
CCCN1CCc2c(sc(NC(=O)CCS(=O)(=O)c3ccccc3)c2C(N)=O)C1	.	.	.	?	?	.
OCCOCCn1c(C2CCCN2c2nc(-c3ccc(F)cc3)cs2)nc2cc(C(F)(F)F)ccc21 (centres undefined)	-103	/	.	.	.	-101
OCCCn1c(CCNc2nc(-c3ccc(F)cc3)cs2)nc2cc(C(F)(F)F)ccc21	.	/	.	.	.	-123
O=C(NCc1ccc(OC(F)(F)F)cc1)C1CC2Cn3c(nc4ccccc43)C2N1Cc1ccccc1 (centres undefined)	-76	.	.	.	.	-98
CN1C(C(=O)NCc2ccc(OC(F)(F)F)cc2)CC2Cn3c(nc4ccccc43)C21 (centres undefined)	.	.	.	.	.	.
CN1C(C(=O)NCc2ccc(OC(F)(F)F)cc2)CC2Cn3c(nc4cc(Cl)c(Cl)cc43)C21 (centres undefined)	?	.	.	.	.	-79
CC1CCCC(N2C(=O)NC(NC(=O)c3ccco3)(C(F)(F)F)C2=O)C1C (centres undefined)	.	.	.	.	.	.
CC(C)N=C(N)N=C(N)Nc1ccc(Cl)cc1	.	.	.	.	.	.
NC(=NCCCCCCN=C(N)/N=C(\N)Nc1ccc(Cl)cc1)/N=C(\N)Nc1ccc(Cl)cc1	.	?	.	52µM!	?	.
O=C(CCN1CCN(c2ccccc2F)CC1)Nc1ccccc1F	.	.	.	.	.	.
